# Test results taken from patent EP1202975B1 (dated 2000).
# Sequences of proteins named here, by UniProt entry; tags and fusion partners are left off. Residues count along the entry.
# UniProt P08709, 61-212 limits assumed: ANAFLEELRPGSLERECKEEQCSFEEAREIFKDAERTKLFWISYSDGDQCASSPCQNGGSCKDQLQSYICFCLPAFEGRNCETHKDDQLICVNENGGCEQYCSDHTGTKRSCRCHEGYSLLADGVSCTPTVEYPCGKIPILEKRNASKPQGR
# UniProt P08709, 213-466 limits assumed: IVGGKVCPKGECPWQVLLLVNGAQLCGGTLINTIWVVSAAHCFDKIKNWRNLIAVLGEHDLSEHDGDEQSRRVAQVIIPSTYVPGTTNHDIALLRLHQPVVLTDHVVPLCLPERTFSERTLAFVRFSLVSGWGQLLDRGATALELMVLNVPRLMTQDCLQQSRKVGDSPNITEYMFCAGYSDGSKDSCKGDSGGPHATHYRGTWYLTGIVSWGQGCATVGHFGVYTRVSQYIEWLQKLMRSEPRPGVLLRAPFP
# UniProt P00742, 41-179 limits assumed: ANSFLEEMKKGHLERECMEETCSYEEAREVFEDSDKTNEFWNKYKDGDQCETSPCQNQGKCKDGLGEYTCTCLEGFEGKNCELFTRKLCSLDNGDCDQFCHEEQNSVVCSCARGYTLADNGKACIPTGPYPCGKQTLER
# UniProt P00742, 235-488 limits assumed: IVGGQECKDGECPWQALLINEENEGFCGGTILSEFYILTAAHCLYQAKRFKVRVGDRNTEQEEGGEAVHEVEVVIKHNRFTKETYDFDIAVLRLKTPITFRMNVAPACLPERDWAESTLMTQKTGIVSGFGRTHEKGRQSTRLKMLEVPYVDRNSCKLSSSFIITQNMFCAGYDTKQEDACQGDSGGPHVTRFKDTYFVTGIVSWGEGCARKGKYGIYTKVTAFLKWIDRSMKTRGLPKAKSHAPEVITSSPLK
# Legend:
# TF-VIIa = TF-VIIa (Homo sapiens, UniProt P08709); test: TF-VIIa Assay
# Human factor Xa = Human factor Xa (Homo sapiens, UniProt P00742)
% Inhibition TF-VIIa (100 µM) (TF-VIIa),% Inhibition Factor Xa (100 µM) (Human factor Xa) [%],Compound
0%,,O=C(Cn1c(-c2ccc(-c3ccccc3)cc2)c(Cl)nc(NCCc2cccc(Cl)c2)c1=O)NCCc1ccncc1 [Example E-0051]
,3,O=C(Cn1c(-c2ccc(-c3ccccc3)cc2)c(Cl)nc(NCCc2ccccc2)c1=O)NCCc1cccnc1 [Example E-0113]
is,,O=C(Cn1c(-c2ccc(-c3ccccc3)cc2)c(Cl)nc(NCCc2cccc(Cl)c2)c1=O)NCCc1ccncc1 [Example E-0115]
